# In US20260226041A1 (ARIGENX THERAPEUTICS CO., LTD., priority 2023, published 2026):
# Protein sequences, listed by entry. Tags and fused reporters are not part of them. Residues count along the entry.
# UniProt P35869, 11-848 limits assumed: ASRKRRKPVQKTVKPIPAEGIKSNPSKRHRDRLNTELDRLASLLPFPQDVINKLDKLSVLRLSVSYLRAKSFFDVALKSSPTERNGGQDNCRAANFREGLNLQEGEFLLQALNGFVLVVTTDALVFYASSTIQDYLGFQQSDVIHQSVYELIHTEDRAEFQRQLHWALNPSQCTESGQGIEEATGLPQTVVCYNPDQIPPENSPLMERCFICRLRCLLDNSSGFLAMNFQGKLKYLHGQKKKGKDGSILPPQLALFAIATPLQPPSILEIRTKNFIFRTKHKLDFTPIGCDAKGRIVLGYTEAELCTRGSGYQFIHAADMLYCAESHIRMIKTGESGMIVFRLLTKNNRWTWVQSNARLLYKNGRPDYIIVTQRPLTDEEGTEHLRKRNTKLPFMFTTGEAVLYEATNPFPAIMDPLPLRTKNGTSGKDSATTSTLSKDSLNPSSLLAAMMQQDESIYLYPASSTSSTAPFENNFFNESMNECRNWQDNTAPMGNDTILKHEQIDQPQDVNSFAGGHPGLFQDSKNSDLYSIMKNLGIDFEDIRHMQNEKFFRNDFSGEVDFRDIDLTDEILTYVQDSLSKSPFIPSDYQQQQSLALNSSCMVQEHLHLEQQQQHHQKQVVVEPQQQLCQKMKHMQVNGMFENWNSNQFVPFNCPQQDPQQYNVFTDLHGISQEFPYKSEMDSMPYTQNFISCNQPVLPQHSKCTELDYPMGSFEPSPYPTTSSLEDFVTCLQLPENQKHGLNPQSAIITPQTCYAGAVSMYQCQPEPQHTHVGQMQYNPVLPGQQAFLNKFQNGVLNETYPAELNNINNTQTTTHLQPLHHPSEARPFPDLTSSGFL
# Biological target: human AHR (Homo sapiens, UniProt P35869)
# Experiment: Human AHR agonist luciferase assay (CYP1A1 promoter Nano-luc reporter in HepG2 cells);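 also: stably transfected HepG2 clone, DRE-containing 1200 bp promoter region driving Nano-luc, treated 4 to 24 h with 11-point dilutions in tryptophan-free medium, medium-only wells as baseline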
# Conditions: read-out: HepG2 EC50; AHR activation, human hepatoma HepG2 reporter cells, incubated 4 to 24 hours
smiles,measurement,value
COc1ccc2[nH]cc(C(=O)c3nc(C4(Cl)CCOC4=O)cs3)c2c1 (stereo not shown),EC50,< 500 nM
